Results reported in patent US10668048B2, “Compounds for inhibiting bacterial growth via phosphatidylglycerol binding” (Wichita State University, priority 2016, dated 2020).

Experiment: Carboxy-fluorescein efflux from PE/PG liposomes
Assay type: biochemical
Settings: 2.5 μM, positive control, within a few minutes of addition
Procedure: Liptin 3e causes membrane leakage when it binds to PG in a membrane, as evidenced by the efflux of fluorescent carboxy-fluorescein from model lipid vesicles of 80% PE/20% PG (the approximate lipid content models E. coli's plasma membrane), shown in FIG. 19A. […] Not shown is the effect of the bee AMP melittin, which forms pores in membranes at 2.5 μM concentrations. Upon addition of melittin within a few minutes of addition the efflux is 100%.
Liptins 3f-h also cause membrane leakage when they bind to PG in a membrane, as evidenced by the efflux of fluorescent carboxy-fluorescein from model lipid vesicles of 80% PE/20% PG (the lipid content models E. coli's plasma membrane), shown in FIG. 19B. The circle bottom line data set is the control without liptin. […] Y-axis: % Efflux; X-axis: Time in minutes.
This greater efflux activity may well translate to lower MICs of these two compounds relative to liptin 3e, and may well change the liptin activity from bacteriostatic to bactericidal. […]

CC[C@H](C)[C@H](NC(=O)CN)C(=O)NCC(=O)N[C@@H](C)C(=O)N[C@H](C(=O)N[C@@H](CC(C)C)C(=O)N[C@@H](CCCCN)C(=O)N[C@H](C(=O)N[C@@H](CC(C)C)C(=O)N[C@H](C(=O)N[C@H](C(=O)NCC(=O)N[C@@H](CC(C)C)C(=O)N1CCC[C@H]1C(=O)N[C@@H](C)C(=O)N[C@@H](CC(C)C)C(=O)N[C@H](C(=O)N[C@@H](CO)C(=O)N[C@@H](Cc1c[nH]c2ccccc12)C(=O)N[C@H](C(=O)N[C@@H](CCCCN)C(=O)N[C@@H](CCCNC(=N)N)C(=O)N[C@@H](CCCCN)C(=O)N[C@@H](CCCNC(=N)N)C(=O)N[C@@H](CCC(N)=O)C(=O)N[C@@H](CCC(N)=O)C(N)=O)[C@@H](C)CC)[C@@H](C)CC)[C@@H](C)O)[C@@H](C)O)C(C)C)C(C)C [melittin, reference compound]
efflux (loss of dye): 100%
